This note sets out measurements from US9611270B2, “Inhibitors of CYP17A1” (University of Kansas, priority 2014, dated 2017).

By UniProt entry, the sequences of proteins in these tests, tags left out. Residues count along the entry.
UniProt P08686, 19-495: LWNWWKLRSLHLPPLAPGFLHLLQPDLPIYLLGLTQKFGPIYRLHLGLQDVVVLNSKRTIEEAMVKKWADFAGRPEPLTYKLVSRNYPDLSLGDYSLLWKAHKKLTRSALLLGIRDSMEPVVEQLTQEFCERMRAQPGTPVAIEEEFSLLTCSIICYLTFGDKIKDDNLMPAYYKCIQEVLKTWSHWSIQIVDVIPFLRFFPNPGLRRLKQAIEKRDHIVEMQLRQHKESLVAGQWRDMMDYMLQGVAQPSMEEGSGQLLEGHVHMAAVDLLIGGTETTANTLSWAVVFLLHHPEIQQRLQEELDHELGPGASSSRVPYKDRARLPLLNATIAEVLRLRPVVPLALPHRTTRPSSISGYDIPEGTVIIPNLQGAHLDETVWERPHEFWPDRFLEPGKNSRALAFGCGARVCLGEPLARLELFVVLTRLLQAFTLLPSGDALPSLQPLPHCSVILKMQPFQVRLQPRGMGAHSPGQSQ

Like-named read-outs stand apart in the source and are kept apart here.

Usually IC50 stands for the point on the concentration scale where inhibition reaches its midpoint.

For this assay, the target named is human CYP21A2 (Homo sapiens (Human), UniProt P08686). The assay can be described thus: Analysis of 21-hydroxyprogesterone generation by CYP21A2 using GC/MS. The class given is biochemical. The text has this: Two methods for detecting enzymatic activity were utilized. […] University of Kansas, Lawrence, K S, 2011.
Toxicol. Appl. […] Mol. Endocrinol. 2007, 21, 1958-1968.
The CYP21A2 construct that was used, CYP21A2dH, was also engineered as according to published procedures. See, e.g., Blake, L. C.; Scott, E. E. Cytochromes P450 as therapeutic targets and counter-targets for the prevention of lung cancer and treatment of steroidogenic diseases. University of Kansas, Lawrence, K S, 2012. In this construct, the “d” refers to an 18 amino acid N-terminal deletion. An N-terminal solubility tag was added, in addition to a C-terminal four-histidine tag (“H”). […] “Full-length CYP21A2” will be specifically designated when appropriate. […]
GC/MS was performed on an Agilent Technologies 6850 Network GC System equipped with a 6850 series autosampler and an Agilent Technologies 5975C VL MSD with triple axis detector. […] For quantitative analysis, the characteristic ions of the monitored steroids were determined as their poly-TMS derivatives. […]
The amount of 21-hydroxyprogesterone present was determined by GC-MS analysis using single ion monitoring (M/Z 546.35, ca. 26 min retention time), and analyzed against the estriol internal standard peak (M/Z 504.30, ca. 15 min retention time). Progesterone (M/Z 458.30, ca. 16 min retention time) was detected for quality control among reactions and standards. […]

As for `C[C@]12CC[C@H](O)CC1=C(C#N)C[C@@H]1[C@@H]2CC[C@]2(C)C(c3cccnc3)=CC[C@@H]12` [Compound 38, 6-Cyano-17-(3-pyridyl)-androst-5,16-dien-3β-ol], the IC50 came to 537 ± 52 nM.

Turning to `C[C@]12CC[C@H](O)CC1=CC[C@@H]1[C@@H]2CC[C@]2(C)C(c3cccnc3)=CC[C@@H]12` [abiraterone, 17-(3-Pyridyl)-androst-5,16-dien-3β-ol, reference compound], the concentration for half-maximal inhibition (IC50) (progesterone 21-hydroxylation, 0.5 μM progesterone, purified CYP21A2 with POR 1:4, ± standard error, read-out: CYP21A2 IC50) stood at 296 ± 26 nM.
